Only a part is listed here, and it is no random draw. Active and inactive are the calls of the source.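 The calls were made as follows: active = inhibition of granule release above a set limit; inactive = the rest.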

The experiment can be described thus: LAMP-1 surface externalization blockers in TALL-104 cells – cell-based, flow cytometry, validation set (AID 651664). To be noted: TALL-104 LAMP-1 externalization, at 15.2 µM, hits give high values, stimulated with thapsigargin and PMA.
For `O=C(NCC1(N2CCOCC2)CCCCC1)c1cc2ccccc2o1`, the inhibition was inactive: -1.6%.

(Values after PubChem BioAssay AID651664 (NMMLSC, 2012).)
